Columns and labels:
Gelatinase (MMP-2) = Gelatinase (MMP-2) (Homo sapiens, UniProt P08253); assay: Gelatinase (MMP-2) inhibitory activity, fluorogenic peptide substrate cleavage; conditions: read-out: MMP02 IC50
Protocol: (§1) Gelatinase (MMP-2) inhibitory activities can be determined as follows: Stock solutions of substrate (MCA-Lys-Pro-Leu-Gly-Leu-Dpa-Ala-Arg-NH2) are prepared in DMSO at a concentration of 1.4 mM. Stock solutions of inhibitors (0.03 μM-3 mM) are also prepared in DMSO. The inhibitors are diluted into the assay solutions, and the controls use an equal volume of DMSO so that the final DMSO concentration from the inhibitor and substrate dilutions in all assays is 1.0%. Assays are performed in an assay buffer (100 mM sodium chloride, 10 μM ZnCl. Sub 2, 10 mM CaCl2, 100 mM Tris-Cl pH7.5, 0.05% Brij-35), containing 1.0% DMSO from the substrate and inhibitor additions. The substrate concentration used in the assays is 5 μM. The assays are carried out at 20-25° C. The fluorescence changes, as a result of substrate cleavage, are monitored using an excitation wavelength of 325 nm and an emission wavelength of 405 nm. The reaction mixtures are added in duplicate into appropriate wells of a 384-well assay plate. The reaction mixtures are preincubated with the inhibitors for 60 minutes The reactions are started by the addition of MMP substrate, and the fluorescence intensity changes are measured after 60 minutes The apparent enzyme activity in the presence of an inhibitor is then compared with that in the absence of any inhibitor to determine the inhibition effect of the inhibitor. […]

Sequences of proteins named here, by UniProt entry; tags and fusion partners are left off. Residues count along the entry.
UniProt P08253, 110-660 limits assumed: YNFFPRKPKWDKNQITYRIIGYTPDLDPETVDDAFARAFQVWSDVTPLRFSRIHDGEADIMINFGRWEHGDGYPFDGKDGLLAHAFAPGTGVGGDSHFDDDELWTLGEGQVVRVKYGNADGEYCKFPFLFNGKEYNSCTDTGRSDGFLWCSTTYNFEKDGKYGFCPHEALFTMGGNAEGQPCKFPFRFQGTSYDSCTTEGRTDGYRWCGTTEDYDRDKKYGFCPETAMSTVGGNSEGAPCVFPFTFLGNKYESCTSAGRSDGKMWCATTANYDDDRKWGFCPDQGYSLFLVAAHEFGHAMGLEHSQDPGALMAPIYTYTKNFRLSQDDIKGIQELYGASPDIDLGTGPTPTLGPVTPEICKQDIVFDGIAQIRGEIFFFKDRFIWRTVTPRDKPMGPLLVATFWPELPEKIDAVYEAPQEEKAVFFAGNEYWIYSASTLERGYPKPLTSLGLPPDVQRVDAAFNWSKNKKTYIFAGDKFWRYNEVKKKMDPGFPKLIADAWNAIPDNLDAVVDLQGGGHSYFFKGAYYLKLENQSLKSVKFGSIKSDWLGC

Collagenase-3 (MMP-13) = Collagenase-3 (MMP-13) (Homo sapiens, UniProt P45452); assay: Collagenase-3 (MMP-13) inhibitory activity, fluorogenic peptide substrate cleavage; conditions: read-out: MMP13 IC50
Protocol: as §1, with “The reaction mixtures are added in duplicate into appropriate wells of a 384-well assay plate.” left out
Collagenase-3 (MMP-13) inhibitory activity is determined as described above. […]

Structure (SMILES)	IC50 (Gelatinase (MMP-2))	IC50 (Collagenase-3 (MMP-13))
NS(=O)(=O)c1cc(C(=O)c2ccc(OCCO)cc2)ccc1Cl [Example 57]	> 30 µM	21.2 µM
NS(=O)(=O)c1cc(C(=O)c2ccc(OCCO)cc2)ccc1Cl [Example 16]	5.94 µM	4.9 µM

Reference: US20130096105A1, “ArylSulfonamide Based Matrix Metalloprotease Inhibitors” (NOVARTIS AG, priority 2008, published 2013)
